This passage reports fold change (FC) results from ChEMBL document CHEMBL5375983, “Discovery of YSR734: A Covalent HDAC Inhibitor with Cellular Activity in Acute Myeloid Leukemia and Duchenne Muscular Dystrophy” (J Med Chem, 2023).

Protein sequences, listed by entry. Tags and fused reporters are not part of them.
UniProt Q92769, whole entry: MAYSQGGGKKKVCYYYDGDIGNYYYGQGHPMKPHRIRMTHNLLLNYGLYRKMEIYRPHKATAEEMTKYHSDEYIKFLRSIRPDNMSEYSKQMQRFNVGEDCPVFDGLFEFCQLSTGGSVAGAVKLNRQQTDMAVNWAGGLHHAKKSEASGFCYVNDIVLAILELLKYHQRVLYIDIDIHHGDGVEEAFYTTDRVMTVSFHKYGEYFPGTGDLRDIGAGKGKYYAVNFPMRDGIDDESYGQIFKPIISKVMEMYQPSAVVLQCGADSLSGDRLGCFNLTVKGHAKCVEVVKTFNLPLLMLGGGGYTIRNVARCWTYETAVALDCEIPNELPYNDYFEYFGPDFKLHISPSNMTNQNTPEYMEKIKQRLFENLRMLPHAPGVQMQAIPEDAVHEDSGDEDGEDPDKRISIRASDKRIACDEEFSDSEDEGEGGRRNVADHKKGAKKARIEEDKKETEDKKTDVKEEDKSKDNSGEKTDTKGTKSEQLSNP

The assay has as its target Histone deacetylase 2 (Homo sapiens, UniProt Q92769). Kind of assay: Binding affinity to recombinant full length HDAC2 (unknown origin) assessed as covalent adduct formation by measuring fold change in adduct:protein ratio at 10 uM incubated for 2 hrs by intact-protein mass spectrometry analysis.

For `Nc1ccccc1NC(=O)c1ccc(CNC(=O)OC2CCN(S(=O)(=O)c3c(F)c(F)c(F)c(F)c3F)CC2)cc1`, the fold change (FC) stood at 10. Turning to `C=CS(=O)(=O)N1CCC(OC(=O)NCc2ccc(C(=O)Nc3ccccc3N)cc2)CC1`, the fold change (FC) was 10. `Nc1ccccc1NC(=O)c1ccc(CNC(=O)OC2CCN(C(=O)CCl)CC2)cc1`: the fold change (FC) was determined as 3.4. Consider `C#CC(=O)N1CCC(OC(=O)NCc2ccc(C(=O)Nc3ccccc3N)cc2)CC1`, for which the fold change (FC) was found to be 10.
